# Ab-95 light chain CDR variants: yeast mating affinities

Target peptide (SARS-CoV-2 spike, HR2 region): PDVDLGDISGINAS

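AAYL52 was designed without a model: most single CDR substitutions and a random sample of double and triple ones. The assay is AlphaSeq: two haploid yeast populations carry antibody and antigen on their surface. After mating in shaken culture at 30 °C for 16 h, diploids were selected and their barcode pairs sequenced. Each replicate has its own calibration line, from reference interactions of the BCL2 family. The assay was run in three technical replicates.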

The variants keep the heavy chain, the linker and the frameworks of Ab-95 (scFv order VH, a (GGGGS)3 linker, VL).
VH: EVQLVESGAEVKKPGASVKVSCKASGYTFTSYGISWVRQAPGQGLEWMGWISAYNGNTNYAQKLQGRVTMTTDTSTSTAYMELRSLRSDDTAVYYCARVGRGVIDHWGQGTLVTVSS
VL: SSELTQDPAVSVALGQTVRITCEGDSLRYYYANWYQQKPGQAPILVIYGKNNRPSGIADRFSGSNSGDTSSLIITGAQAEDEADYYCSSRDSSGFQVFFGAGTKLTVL

Positions count from residue 1 of the parent VL; N51I puts I in place of N. Scale: log10 of Kd in nM, estimated from mating counts; low values are strong binders. An entry "nd" has no value in the source: the pair was not observed among the diploids in that replicate. This suggests poor binding but is not conclusive.

| # | changes | log10 Kd, replicates | empty controls |
|---|---|---|---|
| 1 | N51I R53L R90M | nd 5.17 nd | 1/9 (4.02) |
| 2 | G49N S89E V97H | 3.11 2.78 3.44 | 5/9 (4.04) |
| 3 | R53I S89W S93G | 3.18 nd nd | 2/9 (3.01) |
| 4 | R28F Q96I F98L | nd 4.97 nd | 2/9 (3.08) |
| 5 | A32G G49I S89R | nd nd nd | 2/9 (3.95) |
| 6 | R53K S88N R90K | 2.67 3.13 3.95 | 1/9 (3.93) |
| 7 | A32L R90E G94A | nd 3.26 nd | 2/9 (3.08) |
| 8 | E23C Y30H R90S | 1.86 1.84 1.57 | 5/9 (4.01) |
| 9 | K50L S55V F95P | 2.75 3.57 3.33 | 4/9 (3.88) |
| 10 | L27Q K50E V97F | 3.93 3.92 nd | 3/9 (3.96) |
| 11 | R28Y R53L V97M | 3.55 3.40 3.27 | 3/9 (4.15) |
| 12 | Y30N N52C S93T | 0.85 0.92 0.30 | 1/9 (4.65) |
| 13 | Y30M Y31S R53W | 3.51 3.39 3.53 | 4/9 (3.80) |
| 14 | G49R R53K Q96R | nd 5.63 nd | 1/9 (3.58) |
| 15 | E23G Y29G F95R | 1.40 1.34 0.89 | 7/9 (4.09) |
| 16 | D25P G94C Q96W | 2.79 4.15 4.25 | 1/9 (3.67) |
| 17 | S26G N52V D91Y | 3.00 nd nd | 5/9 (3.69) |
| 18 | S26V P54W V97Q | 5.09 4.97 4.46 | 2/9 (4.38) |
| 19 | E23I P54F S88Q | 2.59 2.43 3.04 | 4/9 (3.60) |
| 20 | Y30K S55K F95T | 3.98 2.57 nd | 2/9 (4.12) |
| 21 | A32D S55F S89P | 3.35 nd 4.06 | 2/9 (4.07) |
| 22 | N33C S88A Q96M | 3.77 nd 3.29 | 5/9 (4.60) |
| 23 | N51I R53W S93H | 2.57 nd 2.32 | 3/9 (3.99) |
| 24 | R28F Y30S S89N | 1.68 1.53 1.10 | 0/9 |
| 25 | G24I Y30G R53Q | 3.34 3.68 4.42 | 4/9 (3.87) |
| 26 | E23D N52M R53C | nd 4.68 4.33 | 5/9 (3.88) |
| 27 | R28K Y31K R53S | nd nd nd | 1/9 (3.52) |
| 28 | G24I S55W S93G | 4.19 nd nd | 4/9 (3.91) |
| 29 | L27I S55T F98I | 3.49 3.59 nd | 5/9 (3.94) |
| 30 | Y29M S88V R90C | nd nd 3.74 | 2/9 (4.09) |
| 31 | Y31I N33F G94Y | nd nd nd | 2/9 (4.14) |
| 32 | E23N F95S F98R | 2.86 3.10 3.67 | 3/9 (3.74) |
| 33 | E23Y P54G S55Q | 2.44 2.33 1.58 | 4/9 (4.08) |
| 34 | Y30D N51Q S89M | 2.96 3.00 2.59 | 1/9 (4.78) |
| 35 | G24C S55R | 3.12 3.01 2.62 | 0/9 |
| 36 | N33R S89I Q96C | nd nd nd | 0/9 |
| 37 | Y30A S93I | 1.03 1.07 0.38 | 1/9 (3.58) |
| 38 | G24N Y29Q P54D | nd 4.83 nd | 3/9 (4.14) |
| 39 | N52G S88Y | 3.69 nd nd | 0/9 |
| 40 | N51V R53M P54M | nd nd nd | 0/9 |

The first 5 variants above that were never detected:

changes,"log10 Kd, replicates",empty controls
A32G G49I S89R,nd nd nd,2/9 (3.95)
R28K Y31K R53S,nd nd nd,1/9 (3.52)
Y31I N33F G94Y,nd nd nd,2/9 (4.14)
N33R S89I Q96C,nd nd nd,0/9
N51V R53M P54M,nd nd nd,0/9

Nonspecific signal, from three strains lacking the peptide, appeared in 28% of pairings of library AAYL52, centred on 3.91 (5% of these signals below 2.90); values are not corrected for it. The control count says in how many pairings with the empty strains this scFv gave a signal, with their mean in brackets. For reference, the parent read 2.31 as the reference entry and 2.25 as a member of this library.

Values reported by Engelhart et al. 2022, doi:10.1038/s41597-022-01779-4 (FLAb copy).